Reference: patent US20120045528A1, “USE OF N20 GAS FOR TREATING CHRONIC PAIN” (priority 2009, published 2012)

Test system: neuropathic rat (sciatic nerve constriction, CCI)
Assay: Nociceptive threshold by vocalization test to a mechanical stimulus (Randall-Selitto) in rats with mononeuropathy from sciatic nerve constriction (CCI)
Type: in vivo, male Sprague-Dawley rats
Details: nitrous oxide at 50%
Description: A mononeuropathy is induced in male Sprague-Dawley rats (8 per group) by sciatic nerve constriction. More specifically, on D0, the rats are anesthetized with halothane and the sciatic nerve (injured hind paw side) is prepared using chromic catgut, 4 filament. Neuropathic pain lasting more than 40 days is thus induced.
On D7, the rats are placed in a hermetic chamber where they will inhale, for 75 minutes, the test gas mixture or medical air in the control rats (Sham). Repeated exposures to the mixtures take place on D7, D8, and D9.
Other rats are subjected to comparative treatments with conventional painkilling products, namely ketamine (3×10 mg/kg, sc) and morphine (1 mg/kg, sc).
The nociceptive threshold is then measured via a vocalization test in response to a mechanical stimulus (Randall-Selitto).
The data obtained per measurement are expressed as mean (±standard deviation). The level of significance is set starting from P<0.05.

Compound: [N-]=[N+]=O [nitrous oxide]
- pain hypersensitivity in the non-injured (contralateral) hind paw: abolishing of pain hypersensitivity; also recorded: abolishes the hypersensitivity

Entries after “also recorded” stand apart in the source; their conditions may differ.
